Test system: HCV
Experiment: Antiviral activity in HCV-infected human liver slice assay
Type: cell-based, hepatitis C virus
Details: HCV RNA in culture media
Method: The effect of various compounds on HCV replication in human liver tissue was evaluated as described below.
Liver from a brain-dead HCV antibody-positive human patient was perfused with ice-cold Viaspan (Dupont Pharmaceutical) preservation solution and received on ice in Viaspan.
Precision-cut liver slices of ˜200-250 μm thickness and […] diameter were prepared and cultured in Waymouth's cell culture medium (Gibco, Inc.) that was supplemented with 10% fetal bovine serum and 10 mL/L Fungi-Bact at 37° C., and gassed with carbogen (95% O2, 5% CO2) at 0.75 liters/min. Tissue slices were maintained in culture for 72 h. Cell culture medium containing test compound in solution was changed on a daily basis.
At appropriate times of liver slice incubation, liver slices and medium were collected for analysis of HCV RNA (tissue and medium) and nucleotide levels (NTP). All collected media and tissue slices were maintained in liquid N2 until analysis.
Medium and tissue samples were analyzed for HCV RNA levels according to published procedures (Bonacini et. al., 1999) which utilize an automated, multicycle, polymerase chain reaction (PCR)-based technique. This assay has a lower limit of detection for HCV RNA of 100 viral copies/ml. Frozen liver slices were disrupted by using a combination of ultrasound probe sonication, Branson Sonifier 450 (Branson Ultrasonics, Danbury, Conn.) and homogenization using a Dounce conical pestle in 200 μls of 10% (v/v) perchloric acid (PCA). After a 5 min centrifugation at 2,500×g, the supernatants were neutralized using 3 M KOH/3 M KHCO3 and mixed thoroughly. The neutralized samples were centrifuged at 2,500 g for 5 min and NTP levels were determined by ion exchange phase HPLC (Hewlett Packard 1050) using a Whatman Partisil 5 SAX (5 μm, 4.6×250 mm) column. Samples (50 μL) were injected onto the column in 70% 10 mM ammonium phosphate buffer and 30% 1 M ammonium phosphate buffer, both at pH 3.5 and containing 6% ethanol. Nucleoside triphosphates were eluted from the column using a linear gradient to 80% 1 M ammonium phosphate pH 3.5/6% ethanol buffer, at a flow rate of 1.25 mL/min and detected by UV absorbance (254 nm).

**Q.** How did the “% decrease in viral RNA relative to untreated liver slices” value (0.25 μM) turn out when `C[C@@]12OC(=O)O[C@@H]1[C@@H](COP1(=O)OCC[C@@H](c3ccncc3)O1)O[C@H]2n1cnc2c(N)ncnc21` (stereo partly shown) [Compound 30.1] was run?
**A.** Its value is 0%.

**Q.** What about the “% decrease in viral RNA relative to untreated liver slices” value (2.5 μM) of the same compound?
**A.** Its value is 0%.

**Q.** And the “% decrease in viral RNA relative to untreated liver slices” value (25 μM)?
**A.** The value was 94%.

**Q.** What about the “% decrease in viral RNA relative to untreated liver slices” value (100 μM) of the same compound?
**A.** Its value is 96%.
